## Apparent affinities of Ab-14 variants for a coronavirus HR2 peptide

Source: Engelhart et al. 2022 (doi:10.1038/s41597-022-01779-4), MIT Lincoln Laboratory and A-Alpha Bio; data file from the FLAb repository.

Antigen: PDVDLGDISGINAS, a 14-residue peptide of the SARS-CoV-2 spike HR2 region.

Parent scFv Ab-14: VH joined to VL by the linker GGGGSGGGGSGGGGS. Changes lie in the heavy chain CDRs alone.
VH: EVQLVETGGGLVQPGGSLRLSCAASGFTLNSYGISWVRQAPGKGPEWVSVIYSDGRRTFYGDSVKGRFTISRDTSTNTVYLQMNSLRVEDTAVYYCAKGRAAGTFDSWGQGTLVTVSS
VL: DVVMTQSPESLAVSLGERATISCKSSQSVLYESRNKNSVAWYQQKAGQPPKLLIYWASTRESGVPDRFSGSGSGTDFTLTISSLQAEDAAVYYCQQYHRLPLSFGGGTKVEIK

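The starting antibody came from a phage panning campaign against this peptide. The library (AAYL49) carries one to three amino acid substitutions per variant, with no insertions or deletions. The assay is AlphaSeq: two haploid yeast populations carry antibody and antigen on their surface. Pairs that bind mate more often; barcode pairs of the diploids are counted by sequencing. The ratio of observed to expected reads was calibrated, replicate by replicate, on BCL2-family standards whose Kd was known from biolayer interferometry. There are three technical replicates.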

Each variant is given by its three heavy chain CDRs, as the data file delimits them; those of the parent are GFTLNSYGIS, VIYSDGRRTFYGDSVK, GRAAGTFDS.
All variants listed here change S63 of the VH, counted from its first residue.
Each Kd is an estimate from the mating assay, the geometric mean of the replicates in which the pair was seen; lower is stronger.
"no signal" marks a missing value. The strain was present, yet no cells mated with the target were sequenced in any replicate, which points to weak or no binding.
As a blank, each scFv also met three strains without target: over library AAYL49, 15% of these pairings were detected, typically at 11 µM and seldom below 680 nM.
Parent in this assay: reference entry 4.4 nM, copy in this library 13 µM (one replicate of three).

CDR-H1,CDR-H2,CDR-H3,Kd (apparent),replicates with signal
GFTLNSYGIS,VIYSDGRRTFYGDNVK,GRAAGTFDS,16 nM,3/3
GFTLNSYGIS,VIYSDGRRPFYGDVVK,GRAAGTFRS,no signal,0/3
GFTLNSYFIS,VIYSDGRRTFYGDRVK,GRADGTFDS,270 µM,1/3
GFTLNSYGIS,VIYSVGRRTFYKDFVK,GRAAGTFDS,900 µM,1/3
GFTLNSYGIS,VIYSDGRRTFYGDMVK,GRAAGTSDS,no signal,0/3
GFTLNSYGIS,VIYSDGRRTFYGDQVS,GRAAGKFDS,no signal,0/3
GATLNSYGIS,VIYSDGRRTFYGDPVK,GRAAGTFDS,7.4 nM,3/3
GFTLNSYFIS,VIYMDGRRTFYGDKVK,GRAAGTFDS,410 nM,1/3
GFTLNEYGID,VIYSDGRRTFYGDHVK,GRAAGTFDS,2.6 µM,1/3
GFTLNSYGIS,VIYSDGRRTFYKDGVK,KRAAGTFDS,7.0 µM,2/3
EFTLNSYGIS,VLYSDGRRTFYGDDVK,GRAAGTFDS,49 nM,3/3
GFTLNSYGIS,VIYSDGRPTFYGDWYK,GRAAGTFDS,1.3 mM,2/3
GFTLCSYGIS,VIYSDGRRTFYGNIVK,GRAAGTFDS,no signal,0/3
QFTWNSYGIS,VIYSDGRRTFYGDNVK,GRAAGTFDS,2.6 µM,1/3
GFTLNSYGIS,VIYSDGRRTFYGDRVK,GRGAGTYDS,96 nM,3/3
GFTLNSYGIS,VIYSDGRRTQYGDLVK,RRAAGTFDS,52 nM,3/3
GFTLNSYKIA,VIYSDGRRTFYGDRVK,GRAAGTFDS,no signal,0/3
GFTLNSYGIS,VVISDGRRTFYGDIVK,GRAAGTFDS,no signal,0/3
GFTLNSYGIS,VMYSDGRRTFYGDKVK,GRAAGTFDS,18 nM,3/3
GFTLNSYGIS,VIYWDARRTFYGDQVK,GRAAGTFDS,120 µM,1/3
GFTLNSYIIS,VIYSDGRRTFYGDVVK,GRAAGTFDS,no signal,0/3
GFTLNSYGIS,VIYSCGRRTFYGDHVK,GRACGTFDS,no signal,0/3
GFTLNSYGIS,VIYSDGRRTFMIDEVK,GRAAGTFDS,4.0 nM,3/3
GLTLNSYGIS,VIYSDGRGTFYGDWVK,GRAAGTFDS,no signal,0/3
GFTLNSYGFS,VIYSDGRRTFYGDQVK,GRLAGTFDS,2.8 µM,1/3
GFTLNSYGIS,VIYSDGRRTFYGDVEK,ERAAGTFDS,2.8 µM,2/3
GFTLNSYGIR,VIYSDGRRTFYGDDVK,GRAAGTGDS,2.6 µM,1/3
EFTLNSYGIS,VIYSDGRRTFYGDRVK,GRAAGTFDS,16 nM,3/3
GFTLNAYGIS,VIYSDGRRTFYGDTVK,GRAGGTFDS,no signal,0/3
GFTLNSYGIN,VIYSDFRRTFYGDAVK,GRAAGTFDS,15 µM,3/3
GFTLWSYGIS,VIYSDGRRTFYGDQCK,GRAAGTFDS,2.0 µM,3/3
GFTLNSYGSS,VILSDGRRTFYGDHVK,GRAAGTFDS,no signal,0/3
GFTLNSYGIS,VIYSDGRRTFYGDNVK,GRAAGPFWS,12 µM,2/3
GFTLNSYGIS,VISSDGHRTFYGDVVK,GRAAGTFDS,no signal,0/3
GFTLNSPGIS,VIYSLGRRTFYGDAVK,GRAAGTFDS,no signal,0/3
GFTLNSYGIS,VIYSDGRRTFYGDLVK,GRAAGTFDS,4.3 µM,1/3
GFTLNSYGIS,GIYSDGRRTFYGDEVK,GRAAWTFDS,31 µM,1/3
GFTLNSYGIS,VIYSDGRRTFYGDDVK,GRAAGTFDS,3.6 nM,3/3
GFTLNSYGIS,VIYSDGRRTFYGDMVK,GRHAGTFDS,23 nM,3/3
GFTLNQYGIS,VIYSDGRRMFYGDLVK,GRAAGTFDS,420 nM,3/3
GFTLNSYGIS,VIQSDGRRTFYKDRVK,GRAAGTFDS,no signal,0/3
GFTLNGYGVS,VIYSDGRRTFYGDWVK,GRAAGTFDS,no signal,0/3
GFTLNGYWIS,VIYSDGRRTFYGDDVK,GRAAGTFDS,no signal,0/3
GFTLNSYGIS,VIYSDGRRTFYGDDVK,RRAAGTSDS,19 nM,3/3
GFTLNSKGIS,VIYSDGRRTFYGDDVK,GRAAGTFDS,23 µM,3/3
GFTLNSYGIS,VIYSDGRRTFYGDCVK,GEAAGTFDS,no signal,0/3
GFTLNSYPIS,VIYSDWRRTFYGDGVK,GRAAGTFDS,no signal,0/3
GFTLNSYGIS,VIYSDGRRTFYPDPDK,GRAAGTFDS,9.2 µM,1/3
GFTLNSYGIN,VIYSDGQRTFYGDMVK,GRAAGTFDS,no signal,0/3
GFTLNSYGIS,VIYSDGRRTFYGDYVK,PRAIGTFDS,670 nM,1/3
GITLNSQGIS,VIYSDGRRTFYGDCVK,GRAAGTFDS,no signal,0/3